Data from paper PMC6021681, “Characterization of the Anti-Hepatitis C Virus Activity of New Nonpeptidic Small-Molecule Cyclophilin Inhibitors with the Potential for Broad Anti-Flaviviridae Activity” (Antimicrobial Agents and Chemotherapy, 2018).

Tested on: genotype 1b HCV-SGR
Assay type: cell-based, hepatitis C virus
Settings: EC50 relative to wild type
Method: Candidate resistance-associated substitutions (RASs) were introduced into a wild-type genotype 1b HCV-SGR containing the luciferase reporter gene by means of site-directed mutagenesis (QuikChange II XL site-directed mutagenesis kit; Agilent Technologies, Santa Clara, CA, USA). Ninety-six hours after RNA transfection, the susceptibility of the RAS-containing HCV-SGR to compound 31 was determined by measurement of luciferase activity and comparison to wild-type HCV-SGR susceptibility. The replication capacity of the RAS-containing HCV-SGR was assessed by comparing luciferase activities at 4 h and 96 h posttransfection and expressed as a percentage of the wild-type replication capacity.

SMILES: C/C=C/C[C@@H](C)[C@@H](O)[C@H]1C(=O)N[C@@H](CC)C(=O)N(C)[C@H](C)C(=O)N(CC)[C@@H](C(C)C)C(=O)N[C@@H](C(C)C)C(=O)N(C)[C@@H](CC(C)C)C(=O)N[C@@H](C)C(=O)N[C@H](C)C(=O)N(C)[C@@H](CC(C)C)C(=O)N(C)[C@@H](CC(C)C)C(=O)N(C)[C@@H](C(C)C)C(=O)N1C [ALV, Alisporivir, reference compound]
- Fold change, WT: 1.0
